Binding of CDR-mutated scFvs to a peptide of the spike HR2 region

Values reported by Li et al. 2023, doi:10.1038/s41467-023-39022-2 (FLAb copy).

Target: peptide PDVDLGDISGINAS, taken from heptad repeat 2 (HR2) of SARS-CoV-2 spike.

Ab-14 is the parent antibody, in scFv form: VH, then a (GGGGS)3 linker, then VL. The heavy chain is unchanged in all variants.
VH: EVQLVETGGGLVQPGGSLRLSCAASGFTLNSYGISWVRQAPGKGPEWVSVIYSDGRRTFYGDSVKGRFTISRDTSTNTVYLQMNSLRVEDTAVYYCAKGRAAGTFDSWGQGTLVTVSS
VL: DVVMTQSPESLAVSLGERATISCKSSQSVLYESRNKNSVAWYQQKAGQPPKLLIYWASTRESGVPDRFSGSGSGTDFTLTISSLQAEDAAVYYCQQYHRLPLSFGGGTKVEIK

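The starting antibody came from a phage panning campaign against this peptide. The variants were designed computationally from a first round of random CDR variants and then made and measured. Their group label is 14L_Ctrl (Ctrl: baseline library sampled from a position-specific scoring matrix, with some repeated check sequences). Affinity was read by AlphaSeq, a pooled yeast mating assay with surface-displayed partners. The frequency of each diploid, read from paired DNA barcodes, reflects how well the two displayed proteins bind. Each replicate has its own calibration line, from reference interactions of the BCL2 family. Mating was done six times.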

Variants are written as CDR1, CDR2 and CDR3 of the light chain (limits as in the source). Parent: KSSQSVLYESRNKNSVA, WASTRES, QQYHRLPLS. Values are log10 of the apparent Kd in nM; lower means stronger binding. An entry "nd" has no value in the source: the pair was not observed among the diploids in that replicate. This suggests poor binding but is not conclusive.

CDR-L1,CDR-L2,CDR-L3,"log10 Kd, replicates",control signals
KSSPSLLYESENKNAVA,WASTRES,QQYHRLPLS,2.57 / 1.16 / 0.90 / 0.87 / 0.85 / 1.00,1 of 18 (2.11)
KSSQSVLYESENANHVA,WESTRES,QQYHRLPLS,nd / nd / nd / nd / 1.89 / nd,0 of 18
KSSQSVLYESRNKNSVA,WASTCES,QQYHRLPLS,nd / nd / nd / nd / nd / nd,1 of 18 (2.76)
KLCQSVLKESRNMNSVA,WHSERTS,EQYMRLPLS,nd / nd / nd / nd / nd / nd,0 of 18
KSSQSVLYESNNKNSVA,WASTRES,YQYHRLPLS,nd / nd / nd / nd / nd / nd,0 of 18
KCSQPVLNESRNKNSVA,WASTRES,QQYHRLPLS,nd / nd / 2.95 / 3.03 / nd / 2.63,4 of 18 (3.05)
KISQSVLYEDRNKNSVA,WASTRES,QQYHRLPLS,1.15 / 0.75 / 0.83 / 0.96 / 0.74 / 0.65,0 of 18
KSSYSVLYESFNKNSVA,EASTRES,AQYHRLPLS,1.41 / 0.82 / 0.84 / 0.45 / 0.95 / 1.00,3 of 18 (3.35)
KSSQSVLYESRNKHSVA,HASTRES,QQYHYLPLS,nd / 2.51 / 2.29 / nd / 4.25 / 3.11,1 of 18 (1.84)
KSSQSNLYESRNKNSVA,WASTRER,QQYHRLPLS,1.15 / 0.99 / 1.07 / 1.19 / 1.38 / 1.36,0 of 18
KSSSSHLYESRNKNSVA,SASTRES,QQYHRLHLS,nd / 0.69 / 0.16 / 0.99 / 1.39 / 1.19,0 of 18
YSSDLVLYESRNKNSVA,KASTRES,QQYHRLPLS,1.15 / 0.46 / 0.80 / nd / 1.56 / nd,1 of 18 (0.59)
KSSFSVLQEMRNKNFVA,WASVRES,QQYHRLPLS,nd / nd / nd / nd / nd / nd,0 of 18
KSSQSVLEESRNKNSVA,WASTRES,QQYSRLILS,nd / nd / nd / nd / nd / nd,0 of 18
KSSQSKLYESRNKNSVA,DASTRES,QQYHREPLS,0.74 / 0.43 / 1.48 / 0.27 / 0.93 / 0.81,1 of 18 (2.07)
KSSQSVLYESRNKNSVA,WASTRMS,QQYHRLPLS,1.05 / 0.70 / 1.15 / 0.61 / 1.17 / 0.93,0 of 18
KSSQSILYESRTKNSVA,WAMTRES,QQYHRLPLS,1.41 / 1.64 / 0.38 / 0.80 / 0.60 / 0.93,1 of 18 (1.71)
KSSQSVLLESRNKNSVA,WASTRHS,QQYHRLPLS,nd / nd / 2.01 / nd / nd / nd,0 of 18
KSSQSVLYESRNKNSVA,RASVRLD,QQYHRLPLS,nd / 1.32 / 1.65 / 0.85 / 0.07 / 2.03,0 of 18
KIPQSVLYESRNKNSVA,WASTRES,QQYHRLPLS,0.86 / 1.40 / 0.75 / 1.10 / 0.78 / 0.68,3 of 18 (2.27)
KFSQSVTYESRMKNSVA,WISTRPH,QQYHRAPLS,nd / nd / nd / nd / nd / nd,0 of 18
QSSQSVLYESRNKNSVA,SASTRES,QQYHRLPLS,1.83 / 1.38 / 1.25 / 1.22 / 0.66 / 1.61,0 of 18
KSSQSLLTDSFNKNSVA,WASTRES,QQTCRLPLS,nd / nd / nd / nd / nd / nd,0 of 18
KSSQLVDYTSRNKNSVA,YASTRES,QQYHRLPLS,0.96 / 2.62 / 2.53 / 1.32 / 1.56 / 1.35,0 of 18
KSSQSVLIESRNKNSVA,WASTRES,QQYHRLPLS,1.72 / nd / nd / nd / 1.85 / 4.31,1 of 18 (4.51)
QSSQSVLYESRNKNSVA,WASTRES,QQYSRLPLS,nd / nd / nd / nd / nd / nd,0 of 18
KSSQSVLYESRNKNSVA,GASTRES,QQYHGLPLS,nd / nd / nd / nd / 3.01 / 2.79,0 of 18
RSSQSVLYESRNKNSVA,HCSTRES,QLYHYLPLS,nd / nd / nd / nd / nd / nd,0 of 18
KCSQSVLYESRNKNSVA,WASTRES,QQYGRLPLS,2.08 / 0.47 / 0.92 / 0.63 / 1.25 / 0.95,1 of 18 (3.09)
KVSWSYLYESDNKQSVA,MVNTRES,QQYHRLPLS,2.27 / 1.25 / 2.36 / 1.62 / 2.24 / 2.03,0 of 18
KLFQSMLYESRNKNSLA,WASTRES,QQYHRYPLR,nd / nd / nd / nd / nd / nd,0 of 18
KSSQSVLGESRNKNSVA,WASTRES,QQYHRLPLS,nd / nd / nd / nd / nd / 1.45,0 of 18
KSSQSVLYESRNKNSVA,WASQRES,QQYHRLPLS,nd / nd / nd / nd / 3.64 / 2.50,1 of 18 (2.72)
KSDQSVLYESTNKNSVA,WASTRES,QQYHRLPLS,0.72 / 0.70 / 0.97 / 0.96 / 1.17 / 1.18,1 of 18 (2.58)
KSSPSVLYEDRNMNSVA,MASTRES,QDYHRLPLG,nd / nd / nd / nd / nd / nd,0 of 18
KSSQSVLYDSVNKNSVA,QGSTLES,QQYHRLPLS,0.41 / 0.72 / 0.44 / 0.79 / 0.36 / 0.93,0 of 18

Nonspecific signal, from three strains lacking the peptide, appeared in 4% of pairings of all light chain designs, centred on 2.64 (5% of these signals below 1.59); values are not corrected for it. For each scFv, signals with the empty controls are counted beside the result, with their mean in brackets. In the paper, a design with two or fewer of six values counts as a poor binder. The parent sequence was in this pool as ten entries: three were never detected, three once, and four in most replicates, with averages from 0.34 to 2.37. Values of this round are not directly comparable with the first-round values of the same sequences.